According to patent publication EP1731520A1:
Where two headings read alike, the source gives them in different places.

The chains behind the UniProt entries cited, without tags or fusion partners.
UniProt P30542, whole entry: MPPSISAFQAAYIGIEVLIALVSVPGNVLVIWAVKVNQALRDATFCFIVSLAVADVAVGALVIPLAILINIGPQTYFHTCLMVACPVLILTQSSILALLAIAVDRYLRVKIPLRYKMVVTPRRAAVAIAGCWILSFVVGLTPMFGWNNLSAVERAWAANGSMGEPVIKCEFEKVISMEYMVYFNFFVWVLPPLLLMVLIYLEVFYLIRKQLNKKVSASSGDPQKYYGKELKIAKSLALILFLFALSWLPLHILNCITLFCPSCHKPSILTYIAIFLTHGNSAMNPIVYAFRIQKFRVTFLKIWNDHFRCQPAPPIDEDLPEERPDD
UniProt P0DMS8, whole entry: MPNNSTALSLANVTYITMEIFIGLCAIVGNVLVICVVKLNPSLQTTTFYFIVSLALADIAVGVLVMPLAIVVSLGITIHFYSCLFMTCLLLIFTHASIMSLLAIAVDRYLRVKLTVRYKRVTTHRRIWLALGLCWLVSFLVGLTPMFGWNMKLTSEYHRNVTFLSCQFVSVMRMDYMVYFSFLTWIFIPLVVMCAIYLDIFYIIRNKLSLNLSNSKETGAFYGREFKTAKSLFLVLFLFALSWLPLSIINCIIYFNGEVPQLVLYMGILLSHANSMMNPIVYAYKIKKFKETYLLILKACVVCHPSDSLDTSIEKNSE

What was measured:
[1] = target: T1, human A1 receptor subtype (Homo sapiens, UniProt P30542); test: biochemical
[2] = target: T1, human A1 receptor subtype
[3] = target: human A3 receptor subtype (Homo sapiens, UniProt P0DMS8); test: Adenosine 3 receptor competition radioligand binding, [125I] AB-MECA, HEK293 membranes; settings: for Ki: read-out: Binding Ki (nM) A3, Table 13
[4] = target: human adenosine A1 receptor (Homo sapiens, UniProt P30542); settings: read-out: Al Yeast IC50
[5] = target: T2, human A2b receptor subtype (Homo sapiens, UniProt P29275); test: Adenosine 2b receptor subtype competition radioligand binding, [3H] DPCPX, HEK293 membranes; settings: read-out: Binding Ki (nM) A2b; Table 13
T2 sequence (P29275 1-332): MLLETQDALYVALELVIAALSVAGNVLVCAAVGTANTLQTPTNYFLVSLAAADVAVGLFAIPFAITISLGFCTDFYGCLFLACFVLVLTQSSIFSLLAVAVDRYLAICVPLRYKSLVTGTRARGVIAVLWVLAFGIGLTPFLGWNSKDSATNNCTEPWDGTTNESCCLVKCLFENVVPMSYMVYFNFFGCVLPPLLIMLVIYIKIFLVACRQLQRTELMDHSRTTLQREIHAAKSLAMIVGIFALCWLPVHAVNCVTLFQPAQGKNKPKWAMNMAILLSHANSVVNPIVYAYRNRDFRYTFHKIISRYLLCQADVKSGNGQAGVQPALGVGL

[6] = target: human A2a receptor; settings: read-out: Reported Ki; agonist; cited from earlier work
[7] = read-out: Binding Ki (nM) A1, Table 13, Profile of Selective Adenosine Antagonists

## O[C@H]1CC[C@H](Nc2nc(-c3ccccc3)nc3[nH]ccc23)CC1 [Compound 1318]
[1]
  Ki: 3.7 ± 0.5 nM

## CC(=O)NCCNc1nc(-c2ccccc2)nc2[nH]c(C)c(C)c12 [Compound 1002]
[2]; Table 5, membranes from yeast cells transformed with human A1 receptor subtype
  Ki: 9.8 nM

## CC(=O)NC1CCCN(c2nc(-c3ccccc3)nc3[nH]c(C)c(C)c23)C1 (centres unmarked) [Compound 1309]
[3]; Table 17, Adenosine A3 Receptor Selective Compounds
  Ki-A3 (selectivity versus other three subtypes): * (at least 10 times more selective than other three subtypes.)

## Cc1[nH]c2nc(-c3ccccc3)nc(NCCC(=O)O)c2c1C [Compound 1204]
[4]; Table 12, "Retro-Amide" Analogues
  IC50: > 10000 nM

## CC(=O)NCCNc1nc(-c2ccccc2)nc2[nH]c(C)c(C)c12 [Compound 1300]
[2]; [7]
  Ki: 9.8 to 25.1 nM

## Cc1c(C)n(C(C)c2ccccc2)c2nc(-c3ccoc3)nc(N[C@H]3CC[C@H](O)CC3)c12 (some centres unmarked) [Compound 803]
[4]; Table 8, Effect of Pyrrole Ring Substituent
  IC50: > 10000 nM
[2]; read-out: Al Binding Ki, Table 8, Effect of Pyrrole Ring Substituent
  Ki: 2210 nM

## Cc1[nH]c2nc(-c3ccccc3)nc(N[C@@H]3CC[C@@H](O)C3)c2c1C (racemic) [Compound 1307]
[3]
  Ki: 3.1 nM
[5]
  Ki: 1140 nM

## CC(Cc1ccccc1)Nc1ncnc2c1ncn2[C@@H]1O[C@H](CO)[C@@H](O)[C@H]1O (single isomer, unassigned; (-)) [PIA]
[6]
  Ki: 100 to 125 nM

## Cc1[nH]c2nc(-c3ccco3)nc(N[C@H]3CC[C@H](O)CC3)c2c1C [Compound 702]
[2]; read-out: Al Binding Ki, Table 7, Effect of C2-Substituent
  Ki: 198 nM

## Cc1[nH]c2nc(-c3ccccc3)nc(N[C@@H]3CC[C@H](O)C3)c2c1C (racemic) [Compound 1308]
[3]
  Ki: 1 nM
[5]
  Ki: 670 nM
[2]; [7]
  Ki: 180 nM
